Yeast UUG start: alters start codon recognition fidelity in yeast | S. cerevisiae UUG-firefly luciferase reporter, luminescence/redox ratio | activity score, % at 18.7 µM | hit rate 0.13% among 350,000 | AID 602363;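 active means replicate mean at a twofold rise or more, about +100% in these data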;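 further: firefly luciferase made from a UUG start codon reports start codon fidelity; reporter light over untreated wells divided by growth signal over untreated wells; some hits fall short of that in this replicate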
miR-122 sensor: miR-122 Renilla sensor signal increase in Huh7, primary screen, miR-122 inhibitor project, cell-based, single point, plate reader; activation (reporter increase), % at 12.5 µM; 340,000 compounds, 0.3% hits; Huh7 miR-122 Renilla luciferase sensor, 48 h; neutral wells = 0, positive control = 100; AID 602342, 2012;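 active = mean replicate activation score at least 90 and every replicate individually at or above 90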;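 also: higher luciferase means less miR-122 activity so hits act as miR-122 inhibitors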
Wnt act: Wnt/beta-catenin pathway activators, primary screen, cell-based, plate reader, single point. activation, % at 9.35 µM. Wnt/beta-catenin reporter cell assay, activator. 300,000 compounds, 1.2% hits; in the data active = activation above about 30%, passing the limit was not always enough;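 also: 0% = neutral control wells and 100% = positive control wells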
TRPM1 prom inh: inhibitors of MITF-dependent TRPM1 promoter reporter, primary screen, cell-based, SK-MEL-5, single point, luciferase | inhibition, % at 12.5 µM | SK-MEL-5 TRPM1 promoter luciferase, 24 h | 330,000 compounds, 0.83% hits | AID 488899, 2010;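 active = mean inhibition across replicates of 60% or more, whatever share of single replicates reaches that level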
MITF act: activators of MITF-driven TRPM1 promoter reporter, primary screen, cell-based, SK-MEL-5, luciferase, single point. AID 588334, 2011. SK-MEL-5 TRPM1-promoter luciferase, 24 h; % of positive control, neutral wells = 0. 300,000 compounds, 0.75% hits. activation, % at 12.5 µM;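 active = mean activation of at least 80% with every replicate also reaching 80%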;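 also: 0% = neutral control wells and 100% = parthenolide positive control wells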
PGC1a acetyl inh: inhibitors of PGC1a acetylation signal, primary screen, cell-based, U2OS, AlphaScreen, inhibitor mode; 350,000 compounds, 0.17% hits; AID 651687, 2012; AlphaScreen anti-acetyl-lysine; with virally co-expressed GCN5 acetyltransferase; inhibition, % at 15.6 µM;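 active = every replicate shows inhibition of at least 40%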;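 also: 0% = neutral control wells and 100% = positive control wells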
An asterisk follows results filed as active; [ ] = remark or other dose. The list is not random: actives were taken first. Their share in the collection is about 2.1%.

For O=C(C[C@H]1CC[C@@H]2[C@H](COC[C@@H](O)CN2Cc2cccc(C(F)(F)F)c2)O1)NCCc1ccccc1 the results were Yeast UUG start 8.9, miR-122 sensor -5.8[16.7 µM] and PGC1a acetyl inh -1.1.
CCOc1ccc(NS(=O)(=O)c2ccc(OCC)c3ncccc23)cc1 was read as Yeast UUG start -3.6, miR-122 sensor 139.3*, TRPM1 prom inh 11.1, MITF act -10.4 and PGC1a acetyl inh 0.9.
CCOc1ccc(S(=O)(=O)Nc2cc(C)ccn2)c2ccccc12 was read as Yeast UUG start 10.6, miR-122 sensor 236.7*, TRPM1 prom inh 8.5 and PGC1a acetyl inh -5.6.
`COc1ccc(S(=O)(=O)Nc2cc(C)cc(C)n2)c2ccccc12` gave Yeast UUG start -10.9, miR-122 sensor -30.9, TRPM1 prom inh 29.2, MITF act -29.7 and PGC1a acetyl inh -5.1.
O=c1c2c3c(sc2nc2n1CCCCC2)CCCCC3 was read as Yeast UUG start -0.1, miR-122 sensor 7.0, TRPM1 prom inh -47.8, MITF act 51.0 and PGC1a acetyl inh 4.2.
O=c1c2c3c(sc2nc2n1CCCCC2)CCCC3 was read as Yeast UUG start -9.3, miR-122 sensor -9.1, Wnt act 39.4* and TRPM1 prom inh -45.0.
`COc1ccccc1OCC(=O)NNC(=O)c1c(-c2ccccc2Cl)noc1C` gave Wnt act -1.7, TRPM1 prom inh 9.1, MITF act -6.8 and PGC1a acetyl inh 15.3.
Screening COc1ccc(OCC(=O)NNC(=O)c2c(-c3ccccc3Cl)noc2C)cc1 returned Wnt act -0.4, TRPM1 prom inh 7.6, MITF act -2.4 and PGC1a acetyl inh 61.7*.
For CCCNC(=O)N(C)C[C@H]1Oc2ncc(-c3ccc(F)cc3)cc2C(=O)N([C@@H](C)CO)C[C@H]1C the results were Yeast UUG start -11.7, miR-122 sensor -2.3[16.7 µM] and PGC1a acetyl inh 0.9.
Screening Cc1ccc(C2=NOC(=O)/C2=C\C=C\c2ccccc2)cc1 returned Yeast UUG start -4.4, Wnt act 0.5, TRPM1 prom inh 95.6*, MITF act -93.8 and PGC1a acetyl inh -5.3.
Screening CC1=NN(c2ccccc2)C(=O)/C1=C/C=C/c1ccccc1 returned Wnt act 1.4, TRPM1 prom inh 69.1* and MITF act -70.8.
`CC1=NN(c2cccc(C(=O)O)c2)C(=O)/C1=C\C=C\c1ccco1` gave Yeast UUG start -8.7, miR-122 sensor -1.4, TRPM1 prom inh -22.0, MITF act 15.6 and PGC1a acetyl inh 1.1.
For CN(C)/C=C1\C(=O)ON=C1c1ccccc1 the results were Wnt act 0.7, TRPM1 prom inh -0.3 and MITF act 3.6.
For CN(C)C(=O)C[C@H]1C[C@H]2c3cc(NC(=O)C4CCOCC4)ccc3O[C@H]2[C@@H](CO)O1 the results were Yeast UUG start -13.6, miR-122 sensor -5.1[16.7 µM] and PGC1a acetyl inh 12.4.
Cc1ccc(NC(=O)n2ncc3c(C)cccc32)cc1F was read as Wnt act 18.0, TRPM1 prom inh -20.5 and MITF act 18.0.

Overlap with the part before: 2 entries, then new ones.
For CN(C)C(=O)C[C@H]1C[C@H]2c3cc(NC(=O)C4CCOCC4)ccc3O[C@H]2[C@@H](CO)O1 the results were Yeast UUG start -13.6, miR-122 sensor -5.1[16.7 µM] and PGC1a acetyl inh 12.4.
Cc1ccc(NC(=O)n2ncc3c(C)cccc32)cc1F was read as Wnt act 18.0, TRPM1 prom inh -20.5 and MITF act 18.0.
For COc1ccc(NC(=O)n2ncc3c(C)cccc32)cc1 the results were Yeast UUG start -21.5, Wnt act 39.2*, TRPM1 prom inh -33.0, MITF act 38.0 and PGC1a acetyl inh 1.2.
COc1ccc(NC(=O)n2ncc3c(C)cccc32)cc1OC was read as Yeast UUG start -12.3, miR-122 sensor -5.8, Wnt act 3.4, TRPM1 prom inh -103.1, MITF act 105.9* and PGC1a acetyl inh 2.8.
`COc1ccc(S(=O)(=O)Nc2cccc3c2O[C@@H](CN(C)Cc2ccc4c(c2)OCO4)[C@@H](C)CN([C@@H](C)CO)C3=O)cc1` gave Yeast UUG start -3.0, miR-122 sensor 25.0[16.7 µM] and PGC1a acetyl inh -8.4.
Screening C[C@@H]1CCCCO[C@H](CN(C)C(=O)C2CCCCC2)[C@@H](C)CN([C@@H](C)CO)C(=O)c2cc(NS(C)(=O)=O)ccc2O1 returned Yeast UUG start 19.2, miR-122 sensor -2.1[16.7 µM] and PGC1a acetyl inh -20.1.
For OC(c1ccccc1)(c1ccccc1)C1CCN(CCCOc2cc(F)cc(F)c2)CC1 the results were Wnt act -5.6.
